Molecules are shown by their SMILES. Only a part of the results on these compounds is given; other tests are left out.

The term logP denotes a log measure of how a compound divides between an organic and an aqueous phase. A higher logP goes with higher lipophilicity.

A short description of this series: Partition coefficient (logP). Conditions: octanol/water.
`CN(C(=O)c1ccc(C(F)(F)F)cc1)C1CCCC[C@H]1N(C)C.CS(=O)(=O)O` (some centres not stated) yielded a logP of 2.9.

For `CN(C(=O)c1ccc([N+](=O)[O-])cc1)C1CCCC[C@H]1N(C)C.Cc1ccc(S(=O)(=O)O)cc1` (some centres not stated), the logP stood at 0.83.

With `CN(C(=O)c1ccc(O)cc1)C1CCCC[C@H]1N(C)C` (some centres not stated), the logP turned out to be 0.35.

As to `CN(C)[C@@H]1CCCCC1NC(=O)c1ccc(O)cc1` (some centres not stated), the logP came to 0.12.

`C=CCN(C)[C@@H]1CCCCC1N(C)C(=O)c1ccc(O)cc1` (some centres not stated) yielded a logP of 1.77.

Consider `C=CCN(C)[C@@H]1CCCCC1NC(=O)c1ccc(Cl)c(Cl)c1` (some centres not stated), for which the logP was 3.18.

The compound `CN(C(=O)c1ccc(C#N)cc1)C1CCCC[C@H]1N(C)C` (some centres not stated) registered a logP of 0.45.

Source of the values: ChEMBL document CHEMBL1123122, “Factors affecting binding of trans-N-[2-(methylamino)cyclohexyl]benzamides at the primary morphine receptor” (1985).
